## Apparent affinities of Ab-95 variants for a coronavirus HR2 peptide

Data: MIT Lincoln Laboratory AlphaSeq set, Engelhart et al. 2022, doi:10.1038/s41597-022-01779-4, as distributed in FLAb.

All variants were tested on one target, the spike HR2 peptide PDVDLGDISGINAS (SARS-CoV-2).

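The starting antibody came from a phage panning campaign against this peptide. In library AAYL52, one, two or three CDR residues were substituted; doubles and triples were drawn at random. Affinity was read by AlphaSeq, a pooled yeast mating assay with surface-displayed partners. After mating in shaken culture at 30 °C for 16 h, diploids were selected and their barcode pairs sequenced. Read counts were normalised to the haploid input and turned into Kd by a linear fit to BCL2-family pairs of known affinity, for each replicate. Mating was done three times.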

The variants keep the heavy chain, the linker and the frameworks of Ab-95 (scFv order VH, three GGGGS repeats, VL).
VH: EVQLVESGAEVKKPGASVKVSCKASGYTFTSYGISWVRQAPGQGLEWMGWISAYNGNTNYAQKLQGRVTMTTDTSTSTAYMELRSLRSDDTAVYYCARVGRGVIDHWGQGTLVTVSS
VL: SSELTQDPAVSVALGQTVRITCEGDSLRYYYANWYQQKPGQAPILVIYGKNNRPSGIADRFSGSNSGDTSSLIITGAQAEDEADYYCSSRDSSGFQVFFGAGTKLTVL

Changes read parent residue, position, new residue, counted from the first residue of the VL shown.
Values are log10 of the apparent Kd in nM; lower means stronger binding.
Averages over replicates are reported, and they cover detected replicates only.
An entry "n.d." has no value in the source: the pair was not observed among the diploids in that replicate. This suggests poor binding but is not conclusive.

{"changes": "Y31T S93V V97N", "log10 Kd (nM) by replicate": "2.85 / 2.53 / 1.14", "log10 Kd (nM), mean": "2.17"}
{"changes": "D25R R28Y G94Y", "log10 Kd (nM) by replicate": "3.02 / 3.62 / 2.93", "log10 Kd (nM), mean": "3.19"}
{"changes": "R90S G94M Q96E", "log10 Kd (nM) by replicate": "n.d. / 5.28 / n.d.", "log10 Kd (nM), mean": "5.28"}
{"changes": "Y30W A32N K50N", "log10 Kd (nM) by replicate": "2.44 / 2.41 / 2.13", "log10 Kd (nM), mean": "2.33"}
{"changes": "G49I S88N R90G", "log10 Kd (nM) by replicate": "4.49 / 3.34 / n.d.", "log10 Kd (nM), mean": "3.91"}
{"changes": "E23N N52K S93K", "log10 Kd (nM) by replicate": "3.25 / 3.30 / n.d.", "log10 Kd (nM), mean": "3.28"}
{"changes": "R28G R53G", "log10 Kd (nM) by replicate": "3.13 / 2.94 / n.d.", "log10 Kd (nM), mean": "3.03"}
{"changes": "D25K S89V F95P", "log10 Kd (nM) by replicate": "2.25 / 2.02 / 2.00", "log10 Kd (nM), mean": "2.09"}
{"changes": "S26Y Y31H", "log10 Kd (nM) by replicate": "1.90 / 1.77 / 1.33", "log10 Kd (nM), mean": "1.66"}
{"changes": "Y30W F95Q V97K", "log10 Kd (nM) by replicate": "3.46 / n.d. / 3.81", "log10 Kd (nM), mean": "3.64"}
{"changes": "A32S S93D", "log10 Kd (nM) by replicate": "2.60 / 2.05 / n.d.", "log10 Kd (nM), mean": "2.32"}
{"changes": "L27W Q96D", "log10 Kd (nM) by replicate": "4.21 / n.d. / n.d.", "log10 Kd (nM), mean": "4.21"}
{"changes": "D25F N52V", "log10 Kd (nM) by replicate": "2.91 / 2.53 / 3.00", "log10 Kd (nM), mean": "2.82"}
{"changes": "N33F S89P F95K", "log10 Kd (nM) by replicate": "n.d. / n.d. / n.d.", "log10 Kd (nM), mean": "n.d."}
{"changes": "A32N R90C S93P", "log10 Kd (nM) by replicate": "3.45 / n.d. / 3.74", "log10 Kd (nM), mean": "3.59"}
{"changes": "L27W N33D N52G", "log10 Kd (nM) by replicate": "3.61 / n.d. / n.d.", "log10 Kd (nM), mean": "3.61"}
{"changes": "S26F P54M S55H", "log10 Kd (nM) by replicate": "3.52 / 4.18 / n.d.", "log10 Kd (nM), mean": "3.85"}
{"changes": "S26Q N33H Q96N", "log10 Kd (nM) by replicate": "3.33 / 3.83 / 2.54", "log10 Kd (nM), mean": "3.23"}
{"changes": "Y31S K50S R53N", "log10 Kd (nM) by replicate": "1.90 / 1.75 / 1.43", "log10 Kd (nM), mean": "1.69"}
{"changes": "Y29Q R90H F95R", "log10 Kd (nM) by replicate": "3.56 / 2.79 / 3.99", "log10 Kd (nM), mean": "3.45"}
{"changes": "S88G G94K F98Q", "log10 Kd (nM) by replicate": "2.43 / 2.44 / 2.19", "log10 Kd (nM), mean": "2.35"}

A selection of 2 entries from above:

changes	log10 Kd (nM) by replicate	log10 Kd (nM), mean
S26Q N33H Q96N	3.33 / 3.83 / 2.54	3.23
Y31T S93V V97N	2.85 / 2.53 / 1.14	2.17

Three control strains display no target. For library AAYL52, 28% of the pairings with them gave a signal, with a median of 3.91 and one signal in twenty below 2.90, so weak values seen in few replicates may be background.
In this assay the parent's reference entry averaged 2.31; its copy inside this library read 2.25.